Reference: patent US20160235686A1, “PROCESSES FOR PREPARING A SOLID POLYMER MATRIX CONTAINING A CORE MATERIAL BY PRESSURE CYCLING OF SUPERCRITICAL FLUID” (priority 2013, published 2016)

Conditions: FIG. 3; PLGA/PLA formulation prepared with processing aid (Poloxamer 407); effect of 10 pressure cycles vs no pressure cycling; HEPES buffer pH 7.4, 37° C.

Bovine Serum Albumin [BSA]
decrease in the initial burst release of BSA from the formulation: approximately 10%
